Test system: Rh41 rhabdomyosarcoma cells
Assay: Chou-Talalay combination assay, Cell Titer Glo
Type: cell-based
Conditions: combination with pyrvinium pamoate, 72 hour incubation

In the case of `COc1cccc2c1C(=O)c1c(O)c3c(c(O)c1C2=O)C[C@@](O)(C(=O)CO)C[C@@H]3O[C@H]1C[C@H](N)[C@H](O)[C@H](C)O1` [Doxorubicin], the CI range is reported as 0.101-0.831.

Source: patent US10933061B2 (Shepherd Therapeutics, Inc., priority 2017, dated 2021)
